Values of other authors in US20030035774A1, “Salt/ion pair medicinal aerosol formulation” (priority 2001, published 2003).
Read-outs that look alike come from different tables or passages of the source.

What was measured:
[1] = aerosolized insulin delivered into the lung; multiple studies, results quite variable

insulin
bioavailability (aerosolized insulin given peripherally into the lung of rabbits): over 50.7%
bioavailability (liquid insulin dripped into the central airways, rabbits): 5.6%
half-life [1]: 15 to 25 min
